Assays:
ENT2 = ENT2 (Homo sapiens, UniProt Q14542); settings: 5 min uptake, pH 7.4
[1] = test system: HeLa FlpIn ENT2 cell line; settings: 5 mM unlabeled uridine, 2 minutes

By UniProt entry, the sequences of proteins in these tests, tags left out. Where a name states a change or a piece, a line headed by the entry shows the natural chain unless it says otherwise.
UniProt Q14542: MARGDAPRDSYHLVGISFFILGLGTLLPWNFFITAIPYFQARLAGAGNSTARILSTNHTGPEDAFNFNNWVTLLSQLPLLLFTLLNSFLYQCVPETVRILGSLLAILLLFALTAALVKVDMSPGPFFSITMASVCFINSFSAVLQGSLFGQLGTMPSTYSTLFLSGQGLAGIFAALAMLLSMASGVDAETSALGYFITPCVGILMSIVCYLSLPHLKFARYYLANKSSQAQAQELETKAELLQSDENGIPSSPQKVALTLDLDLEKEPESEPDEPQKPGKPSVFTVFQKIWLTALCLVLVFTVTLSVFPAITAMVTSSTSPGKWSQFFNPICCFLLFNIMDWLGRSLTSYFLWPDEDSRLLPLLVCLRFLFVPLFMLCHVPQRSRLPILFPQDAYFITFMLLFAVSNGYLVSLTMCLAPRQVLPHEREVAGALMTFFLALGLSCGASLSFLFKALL

## O=c1ccn([C@@H]2O[C@H](CO)[C@@H](O)[C@H]2O)c(=O)[nH]1 [uridine]
ENT2
  Jmax, maximal rate of uridine transport: 37.9 ± 7.9 pmol·cm^−2·min^−1
[1]
  total [3H]uridine uptake reduced: ~ 80%

— article PMC12486301 (The Journal of pharmacology and experimental therapeutics, 2025)
